Values quoted from earlier work as cited in US9675617B2, “Tetrahydrofolates in combination with EGFR-inhibitors” (ISOFOL MEDICAL AB, priority 2012, dated 2017).

Conditions: in the body; no source or species given; cited from earlier work

5,6,7,8-tetrahydrofolate [THF]
half life: approximately 30 min
